These results are taken from ChEMBL document CHEMBL1140811, “Inhibition of dipeptidyl peptidase-IV (DPP-IV) by atorvastatin” (Bioorg Med Chem Lett, 2008).

Sequences of proteins named here, by UniProt entry; tags and fusion partners are left off. A change or cut given only in a name is not applied to a line headed by its entry.
UniProt P22411: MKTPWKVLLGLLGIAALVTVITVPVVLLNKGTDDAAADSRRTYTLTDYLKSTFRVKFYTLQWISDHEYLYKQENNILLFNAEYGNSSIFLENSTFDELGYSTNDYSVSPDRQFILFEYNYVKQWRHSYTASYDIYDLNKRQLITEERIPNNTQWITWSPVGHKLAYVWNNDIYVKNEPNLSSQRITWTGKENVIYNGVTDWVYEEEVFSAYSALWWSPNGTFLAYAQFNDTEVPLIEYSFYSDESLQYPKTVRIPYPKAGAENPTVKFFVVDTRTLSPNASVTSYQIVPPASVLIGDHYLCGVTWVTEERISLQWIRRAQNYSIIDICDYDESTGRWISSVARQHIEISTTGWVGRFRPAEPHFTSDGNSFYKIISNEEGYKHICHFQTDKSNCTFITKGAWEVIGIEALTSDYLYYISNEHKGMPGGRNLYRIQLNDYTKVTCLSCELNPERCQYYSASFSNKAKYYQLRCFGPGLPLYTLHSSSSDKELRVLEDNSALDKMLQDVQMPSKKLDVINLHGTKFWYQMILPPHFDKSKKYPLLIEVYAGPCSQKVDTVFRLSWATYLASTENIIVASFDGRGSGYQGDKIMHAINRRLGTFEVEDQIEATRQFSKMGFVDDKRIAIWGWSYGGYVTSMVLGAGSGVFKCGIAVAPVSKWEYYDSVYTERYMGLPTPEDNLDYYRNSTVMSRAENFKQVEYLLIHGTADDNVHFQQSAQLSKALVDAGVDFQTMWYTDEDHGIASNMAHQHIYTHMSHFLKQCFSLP

Usually pIC50 stands for the negative decadic logarithm of the IC50, by convention in mol/L. Read a low pIC50 as a high IC50.

pIC50: −log10 of the molar value.

The target of the assay is Dipeptidyl peptidase 4 (Sus scrofa, UniProt P22411). The experiment in a line: Inhibition of pig DPP4.

In turn, `CC[C@H](C)[C@H](N)C(=O)N1CCC[C@H]1C(=O)N[C@H](C(=O)O)[C@@H](C)CC` [DIPROTIN A] had a pIC50 of 4.84.
